The target in one assay is T1, UGT1A10 (Homo sapiens, UniProt Q9HAW8).
T1 sequence (Q9HAW8 26-530): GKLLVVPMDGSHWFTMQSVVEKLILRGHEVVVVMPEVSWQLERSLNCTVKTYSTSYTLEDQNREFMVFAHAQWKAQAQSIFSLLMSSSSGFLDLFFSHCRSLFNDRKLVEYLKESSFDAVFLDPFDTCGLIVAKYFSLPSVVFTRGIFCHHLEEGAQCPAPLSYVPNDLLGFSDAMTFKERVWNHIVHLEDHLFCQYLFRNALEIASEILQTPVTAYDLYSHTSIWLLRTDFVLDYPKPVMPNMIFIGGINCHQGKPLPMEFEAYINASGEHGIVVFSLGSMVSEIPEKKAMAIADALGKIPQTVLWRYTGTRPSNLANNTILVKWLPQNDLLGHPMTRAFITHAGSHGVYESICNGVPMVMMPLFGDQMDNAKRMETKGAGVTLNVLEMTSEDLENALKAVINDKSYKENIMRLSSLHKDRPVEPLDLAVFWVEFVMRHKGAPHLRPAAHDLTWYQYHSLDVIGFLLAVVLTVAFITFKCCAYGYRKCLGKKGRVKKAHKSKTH
Nature of the assay: Inhibition of UGT1A10 (4-methylumbelliferone-O-glucuronidation). As to conditions: best model by smallest AIC and SC. Here is the method:
(§1) The final volume of solvent in incubations was 1%. In addition, emodin, atazanavir, and diclofenac were considered as positive controls for UGT1A10, UGT1A1, and UGT2B7, respectively.
(§2) Competitive inhibition, non-competitive inhibition, and mixed-type inhibition models were used to estimate the Ki values by nonlinear regression based on Eqs 6–8, respectively.

The next assay deals with T2, UGT2B7 (Homo sapiens, UniProt P16662).
T2 sequence (P16662 24-529): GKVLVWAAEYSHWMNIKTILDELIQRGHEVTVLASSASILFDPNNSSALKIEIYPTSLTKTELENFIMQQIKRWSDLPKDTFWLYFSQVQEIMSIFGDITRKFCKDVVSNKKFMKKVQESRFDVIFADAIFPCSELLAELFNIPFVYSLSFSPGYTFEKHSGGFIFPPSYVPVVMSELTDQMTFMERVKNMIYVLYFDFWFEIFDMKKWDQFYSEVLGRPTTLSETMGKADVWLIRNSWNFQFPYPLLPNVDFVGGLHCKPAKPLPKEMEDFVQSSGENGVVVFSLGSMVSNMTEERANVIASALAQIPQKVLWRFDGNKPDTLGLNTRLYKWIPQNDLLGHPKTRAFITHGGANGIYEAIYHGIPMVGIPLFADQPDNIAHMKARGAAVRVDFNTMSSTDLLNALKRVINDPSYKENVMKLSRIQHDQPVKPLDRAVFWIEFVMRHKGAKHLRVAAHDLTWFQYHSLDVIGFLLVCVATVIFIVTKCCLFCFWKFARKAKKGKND
As to the kind of experiment: Inhibition of UGT2B7 (zidovudine-N-glucuronidation). The protocol: as §1, §2

In the case of `COc1ccc(-c2oc3c(CC=C(C)C)c(O[C@@H]4O[C@H](CO)[C@@H](O)[C@H](O)[C@H]4O)cc(O)c3c(=O)c2O[C@@H]2O[C@@H](C)[C@H](O)[C@@H](O)[C@H]2O)cc1` [Icariin, icariin], the Inhibitory type result at UGT1A10 is “Non-competitive”.
Turning to `C=C[C@@](C)(/C=C/c1ccc(O)cc1)CCC=C(C)C` [Bakuchiol, bakuchiol], the affinity on UGT2B7, expressed as Ki, was 2.02 ± 0.26 µM.

The values above are taken from article PMC9386001, “Identification of naturally occurring inhibitors in Xian-Ling-Gu-Bao capsule against the glucuronidation of estrogens” (Frontiers in Pharmacology, 2022).
